Reference: patent publication US20230234957A1, “PROTEIN TAG TO INDUCE LIGAND DEPENDENT DEGRADATION OF PROTEIN/PROTEIN-FUSIONS” (DANA-FARBER CANCER INSTITUTE, INC., priority 2020, published 2023)

Legend:
BRD4BD1L94V-EGFP = BRD4BD1L94V-EGFP (Homo sapiens, UniProt O60885, L94V); assay: Dual reporter line simultaneous degradation, Acumen EGFP/mCherry read at 5 h; format: cell-based
[1] = tested on: HiBit-FKBP12 F36V-KRAS G12C; assay: Dual reporter line simultaneous degradation, Nano-Glo HiBit lytic assay at 7 h

Row | Structure (SMILES) | degradation of BRD4BD1L94V-EGFP, effect of addition of dTAG^v-1 (BRD4BD1L94V-EGFP; addition of 100 nM dTAG^v-1, more apparent with 1 μM) | degradation of BRD4BD1L94V-EGFP, effect of dTAG^v-1-neg (BRD4BD1L94V-EGFP; with degradation-inactive negative control dTAG^v-1-neg) | cross-degradation of the HiBit-FKBP12 F36V-KRAS G12C reporter [1] | degradation of HiBit-FKBP12 F36V-KRAS G12C fusion, effect of co-treatment with bifunctional compound 1 ([1]; presence of 1 μM of bifunctional compound 1)
1 | COc1ccc2c(c1)C(c1ccc(Cl)cc1)=N[C@@H]([C@@H](C)C(=O)NCCCCCNC(=O)COc1cccc3c1C(=O)N(C1CCC(=O)NC1=O)C3=O)c1nnc(C)n1-2 (stereo partly drawn) [Compound 1, (2R)-2-((4S)-6-(4-chlorophenyl)-8-methoxy-1-methyl-4H-benzo[f][1,2,4]triazolo [4,3-a][1,4]diazepin-4-yl)-N-(5-(2-((2-(2,6-dioxopiperidin-3-yl)-1,3-dioxoisoindolin-4-yl)oxy)acetamido)pentyl)propanamide] | enhanced | The same effect was also observed | did not show cross-degradation of the reporters | 
2 | CC[C@H](C(=O)N1CCCC[C@H]1C(=O)O[C@H](CCc1ccc(OC)c(OC)c1)c1ccccc1OCC(=O)NCCCCCCOc1cccc2c1C(=O)N(C1CCC(=O)NC1=O)C2=O)c1cc(OC)c(OC)c(OC)c1 (stereo partly shown) [dTAG13, reference compound] |  |  |  | had no effect
